Only a part is listed here, and it is no random draw. The source made the active and inactive calls. No stated cut-off is given here; in the data, active means inhibition above about 22%; inactive means the rest.

A short description of the assay: IEC-6 cell viability reduction – luminescence, cytotoxicity control for KLF5 inhibitor project, primary screen (AID 1825).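 Further: 0% = plate median of test compound wells and 100% = cytotoxic reference compound wells.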 To be noted: IEC-6 cytotoxicity, at 5 µM, active compounds read high.
With `CCOC(=O)c1ccc(NP(C)(=O)Oc2ccc(F)cc2)cc1` (centres undefined), the inhibition was inactive: 3.3%.

For the compound `COc1ccc(OP(C)(=O)Nc2ccc(SC(F)(F)F)cc2)cc1` (centres undefined), the inhibition was inactive: 0.8%.

With `CCN(CC)CCCOC(=O)C(O)(c1ccccc1)C1CCCCC1` (centres undefined), the inhibition is inactive: -0.7%.

Take `CP(=O)(Nc1ccccc1)Oc1ccc(F)cc1` (centres undefined): the inhibition was inactive: -6.4%.

Turning to `CCCCCOc1ccc(NP(C)(=O)Oc2ccc(Cl)cc2Cl)cc1` (centres undefined), the inhibition was inactive: -6.9%.

Take `O=[N+]([O-])c1cc([N+](=O)[O-])c(OC2CCCCC2O)c([N+](=O)[O-])c1` (centres undefined): the inhibition was inactive: -13.2%.

On to `CP(=O)(Nc1ccccc1F)Oc1ccccc1` (centres undefined), for which the inhibition is inactive: -9.8%.

For the compound `CC(C)c1ccc(OP(C)(=O)Nc2ccc(SC(F)(F)F)cc2)cc1` (centres undefined), the inhibition was inactive: -2.4%.

For `O=C(OC1CN2CCC1CC2)c1ccc([N+](=O)[O-])cc1` (centres undefined), the inhibition was inactive: 3.2%.

As to `O=C(OCCN1CCN(CCOCc2ccccc2)CC1)C(O)(c1ccccc1)c1ccccc1`, the inhibition was inactive: -3%.

In the case of `CP(=O)(Nc1ccc(SC(F)(F)F)cc1)Oc1ccc(F)cc1` (centres undefined), the inhibition is inactive: 0.2%.

Regarding `CCOP(C)(=S)SCC(=O)NC(C)(CC)C(=O)O` (centres undefined), the inhibition is inactive: 0.7%.

For the compound `CP(=O)(Nc1ccc2c(c1)OCCO2)Oc1ccccc1` (centres undefined), the inhibition is inactive: -3.6%.

Consider `Cc1ccccc1NP(C)(=O)Nc1ccccc1C`, for which the inhibition was inactive: -4.8%.

Consider `COc1ccc(OP(C)(=O)Nc2cccc(Br)c2)cc1` (centres undefined), for which the inhibition is inactive: -3.8%.

For the compound `CN(C)CCOC(=O)C(O)(c1ccccc1)C1CCCCC1` (centres undefined), the inhibition is inactive: 3.1%.

As for `COc1ccc(NP(C)(=O)Oc2ccccc2OC)cc1` (centres undefined), the inhibition is inactive: -0.5%.

For `O=[N+]([O-])c1ccc(OP2(=O)COCCO2)cc1` (centres undefined), the inhibition is inactive: 1.25%.

`Cc1cc(-c2cccc3ccccc23)c(C)cn1.O=[N+]([O-])c1cc([N+](=O)[O-])c(O)c([N+](=O)[O-])c1`: the inhibition was inactive: 2.9%.

Take `O=[N+]([O-])c1cc([N+](=O)[O-])c(NCC2CCS(=O)(=O)C2)c([N+](=O)[O-])c1` (centres undefined): the inhibition is inactive: -2.3%.

With `CCOC(=O)c1ccc(NP(C)(=O)Oc2ccc(Cl)cc2)cc1` (centres undefined), the inhibition is inactive: 2.2%.

Turning to `CP(=O)(OC12CC3CC(CC(C3)C1)C2)OC12CC3CC(CC(C3)C1)C2`, the inhibition is inactive: 4.4%.

Take `COc1ccc(OP(C)(=O)Nc2ccc(Br)cc2)cc1` (centres undefined): the inhibition is inactive: -4.8%.

With `CCN(CC)CC(O)COC(=O)C(O)(c1ccccc1)C1CCCCC1` (centres undefined), the inhibition is inactive: -1%.

Turning to `O=C(OCCCN1CCCC1)C(O)(c1ccccc1)C1CCCCC1` (centres undefined), the inhibition is inactive: 2.5%.

On to `COc1ccccc1OP(C)(=O)Nc1c(C)n(C)n(-c2ccccc2)c1=O` (centres undefined), for which the inhibition was inactive: 2.1%.

Consider `CCc1ccc(OP(C)(=O)Nc2cccnc2)cc1` (centres undefined), for which the inhibition was inactive: -0.4%.

As to `CP(=O)(Oc1ccccc1)N1CCOC1=O` (centres undefined), the inhibition was inactive: 2.3%.

Consider `COc1ccccc1OP(C)(=O)Nc1ccccc1Br` (centres undefined), for which the inhibition is inactive: 3.8%.

`CC(C)(C)c1ccc(OP(C)(=O)O)cc1`: the inhibition is inactive: -3%.

Regarding `CP(=O)(Nc1ccc(Cl)cc1)Oc1ccc(F)cc1` (centres undefined), the inhibition was inactive: 3.1%.

Regarding `CN(C)C(=O)c1c([N+](=O)[O-])cc([N+](=O)[O-])cc1[N+](=O)[O-]`, the inhibition is inactive: -6.3%.

Regarding `COc1ccccc1OP(C)(=O)Nc1ccc(Br)cc1` (centres undefined), the inhibition was inactive: -0.8%.

With `COc1ccc(OP(C)(=O)Nc2ccccn2)cc1` (centres undefined), the inhibition was inactive: 0.4%.

With `CN(C)CCOC(=O)C(O)(c1ccccc1)C1CCCC1` (centres undefined), the inhibition was inactive: -0.7%.

`Cc1c(NP(C)(=O)Oc2ccc(C(C)C)cc2)c(=O)n(-c2ccccc2)n1C` (centres undefined): the inhibition was inactive: 1.7%.

As for `O=[N+]([O-])c1cc([N+](=O)[O-])c(Nc2ccccn2)c([N+](=O)[O-])c1`, the inhibition is inactive: -13.2%.

With `COc1ccccc1OP(C)(=O)Nc1ccc(C)cc1C` (centres undefined), the inhibition is inactive: 5.4%.

For the compound `CP(=O)(Nc1ccccn1)Oc1ccccc1` (centres undefined), the inhibition was inactive: -11.4%.

In the case of `CCc1ccc(OP(C)(=O)O)cc1`, the inhibition was inactive: -6.7%.

Consider `Cc1cc(C)cc(OP(C)(=O)Nc2cccc(C(F)(F)F)c2)c1` (centres undefined), for which the inhibition is inactive: 2.1%.

As for `COc1ccccc1OP(C)(=O)Nc1ccc(C)c(C)c1` (centres undefined), the inhibition was inactive: -7.2%.

For the compound `COc1ccc(OP(C)(=O)Nc2ccccc2Br)cc1` (centres undefined), the inhibition is inactive: -8.8%.

Turning to `Cc1nc2ccc3ccccc3c2o1.O=[N+]([O-])c1cc([N+](=O)[O-])c(O)c([N+](=O)[O-])c1`, the inhibition was inactive: 1.1%.

Regarding `CP(=O)(Nc1ccc(Cl)cc1Cl)Oc1ccccc1` (centres undefined), the inhibition is inactive: -4.4%.

Take `CP(=O)(OCCOc1ccccc1)OCCOc1ccccc1`: the inhibition was inactive: -1.7%.

As for `O=[N+]([O-])c1ccc2c(c1)C=Nc1ccccc1O2`, the inhibition was inactive: 0%.

Consider `Cc1cccc(C)c1OP(C)(N)=O` (centres undefined), for which the inhibition is inactive: 2%.

On to `CC(C)(C)c1ccc(OP(C)(=O)Nc2ccc(SC(F)(F)F)cc2)cc1` (centres undefined), for which the inhibition was inactive: -3.5%.

Take `Cc1ccc(NP(C)(=O)Oc2ccccc2)c(C)c1` (centres undefined): the inhibition was inactive: 0.3%.

For `COc1ccccc1OP(C)(=O)Nc1ccc(C)cc1` (centres undefined), the inhibition was inactive: 0.5%.

Regarding `CCOC(=O)c1ccc(NP(C)(=O)Oc2ccccc2)cc1` (centres undefined), the inhibition is inactive: -1.1%.

Take `Cc1cc(C)cc(OP(C)(N)=O)c1` (centres undefined): the inhibition is inactive: -2%.

For `COc1ccc(OP(C)(=O)Nc2cccc(F)c2)cc1` (centres undefined), the inhibition was inactive: -3%.

On to `COc1ccccc1OP(C)(=O)Nc1cc(Cl)ccc1C` (centres undefined), for which the inhibition is inactive: 13.8%.

Turning to `CCN(CC)CCCOC(=O)C(O)(c1ccccc1)c1ccccc1`, the inhibition was inactive: -6.2%.

Turning to `CP(=O)(Oc1ccccc1)OC(c1ccccc1)C(F)(F)F` (centres undefined), the inhibition is inactive: 2.8%.

Regarding `Cc1cccc(C)c1OP(C)(=O)Nc1ccc(SC(F)(F)F)cc1` (centres undefined), the inhibition is inactive: 4.1%.

Turning to `CP(=O)(Nc1ccc(SC(F)(F)F)cc1)Oc1ccc(Cl)cc1` (centres undefined), the inhibition was inactive: -2.1%.

As for `Cc1cc(C)cc(OP(C)(=O)Nc2ccc(SC(F)(F)F)cc2)c1` (centres undefined), the inhibition is inactive: 6.3%.

Turning to `CP(=O)(NC(=O)Nc1ccccc1)Oc1ccccc1` (centres undefined), the inhibition is inactive: 1.4%.

With `CCc1ccc(OP(C)(=O)N2CCN(c3ccc([N+](=O)[O-])cc3)CC2)cc1` (centres undefined), the inhibition was inactive: 6.4%.

For `CCOC(=O)c1ccc(NP(C)(=O)Oc2ccc(OC)cc2)cc1` (centres undefined), the inhibition was inactive: 0.7%.

As for `CCOP(C)(=S)SCC(=O)NC(C)C(=O)O` (centres undefined), the inhibition is inactive: 6.5%.

For the compound `CP(=O)(Nc1ccccn1)Oc1ccc(Cl)cc1` (centres undefined), the inhibition was inactive: 2.4%.

`CP(=S)(Nn1cnnc1)Oc1ccccc1` (centres undefined): the inhibition was inactive: 11.5%.

For the compound `CP(=O)(Nc1ccccc1Br)Oc1ccccc1` (centres undefined), the inhibition is inactive: 0.5%.

In the case of `COc1ccccc1OP(C)(=O)Nc1ccccc1` (centres undefined), the inhibition was inactive: -9.3%.

Turning to `CCOC(=O)C(CC)C1=NC(C)(C)Cc2ccccc21.O=[N+]([O-])c1cc([N+](=O)[O-])c(O)c([N+](=O)[O-])c1` (centres undefined), the inhibition is inactive: 3.7%.

On to `O=[N+]([O-])c1cc([N+](=O)[O-])c(Nc2nnnn2CCO)c([N+](=O)[O-])c1`, for which the inhibition is inactive: -3.1%.

Take `COc1ccccc1OP(C)(=O)Nc1c(C)cccc1C` (centres undefined): the inhibition was inactive: 3.9%.

For `CN1CCCCC1COC(=O)C1(O)c2ccccc2CCc2ccccc21` (centres undefined), the inhibition is inactive: -0.9%.

In the case of `CCCOc1ccc(NP(C)(=O)Oc2ccc(Cl)cc2)cc1` (centres undefined), the inhibition is inactive: 3.5%.

For the compound `CP(=O)(Nc1ccc(SC(F)(F)F)cc1)Oc1ccccc1` (centres undefined), the inhibition is inactive: -7.3%.

Consider `O=[N+]([O-])c1cc([N+](=O)[O-])c(-n2nnc3ccccc32)c([N+](=O)[O-])c1`, for which the inhibition is inactive: -1%.

For the compound `Cc1nc2ccc3ccccc3c2s1.O=[N+]([O-])c1cc([N+](=O)[O-])c(O)c([N+](=O)[O-])c1`, the inhibition is inactive: -0.7%.

On to `COc1ccccc1OP(C)(=O)Nc1cccc(Br)c1` (centres undefined), for which the inhibition was inactive: -0.1%.

Take `CCOC(=O)c1ccc(NP(C)(=O)Oc2cc(C)cc(C)c2)cc1` (centres undefined): the inhibition was inactive: 8.7%.

On to `Cc1cc(C)cc(OP(C)(=O)Nc2ccc(C)cc2C)c1` (centres undefined), for which the inhibition was inactive: 0.4%.

Take `Cc1ccc(C)c(NP(C)(=O)Oc2ccccc2)c1` (centres undefined): the inhibition is inactive: -1.9%.

`Cc1cc(C)cc(OP(C)(=O)Nc2ccccn2)c1` (centres undefined): the inhibition is inactive: -3.9%.

On to `CP(=O)(Nc1cccc(Br)c1)Oc1ccccc1` (centres undefined), for which the inhibition is inactive: -1.8%.

Consider `O=C(O)c1cccc(Nc2c([N+](=O)[O-])cc([N+](=O)[O-])cc2[N+](=O)[O-])c1`, for which the inhibition is inactive: -12.4%.

For the compound `CC1=NCCc2c1[nH]c1ccccc21.O=[N+]([O-])c1cc([N+](=O)[O-])c(O)c([N+](=O)[O-])c1`, the inhibition was inactive: 6.8%.

In general, inhibition refers to the drop in the measured response relative to a control, in per cent.

The values are drawn from PubChem BioAssay AID1825 (The Scripps Research Institute Molecular Screening Center, 2009).
